Assay results from patent US8563548B2, “Methylene furanone derivatives and use of said derivatives as a photoprotecting or antioxidant or depigmentation agent in cosmetic or dermatological compositions” (Pierre Fabre Dermo-Cosmetique, priority 2008, dated 2013).

Experiment: Antioxidant capacity by trapping the superoxide anion (photochemiluminescence with luminol)
Type: biochemical
Details: reference products; sample needed for activity equivalent to 1 μg Trolox
Description: The antioxidant capacity of 10 molecules was measured by trapping the superoxide anion: 5d, 9a, 5b, 5a, 5e, 4d, 5f, 5g, 5h, 5j.
The method consists in generating free radicals by a photochemical signal. Oxidation intensity is 1000 times higher than that obtained in normal conditions.
Thus, the superoxide radical (O2—) is generated by a photochemical reaction: L+hv(UV)+O2→L*O2→L^++O2—
Detection is done by chemiluminescence. It enables the evaluation of water-soluble and fat-soluble antioxidant molecules or extracts.
Part of the superoxide anions are quenched by antioxidants. The remaining free radicals are quantified by chemiluminescence. L^++O2^−→N2+AP*^2−→AP^2−+hv (luminescence)
The results are expressed respectively in equivalent quantity of vitamin C or Trolox (6-hydroxy-2,5,7,8-tetramethylchroman-2-carboxylic acid). Sensitivity is on the order of a nanomole.
The analysis of the results depends on two criteria: shape of the curve and numerical value given by the software.
The results will be expressed in μg of sample necessary to obtain an activity equivalent to the activity detected for 1 μg of the standard (ascorbic acid or Trolox).

## Albumin: reference product in the antioxidant comparison table [reference compound]
  μg of sample for 1 μg of Trolox: 3069 µg
